This note sets out measurements from patent US8969335B2, “Benzonitrile derivatives as kinase inhibitors” (MERCK PATENT GmbH, priority 2011, dated 2015).

Amino acid sequences for entries named in this document (tags omitted). A change or cut given only in a name is not applied to a line headed by its entry.
UniProt Q9UHD2: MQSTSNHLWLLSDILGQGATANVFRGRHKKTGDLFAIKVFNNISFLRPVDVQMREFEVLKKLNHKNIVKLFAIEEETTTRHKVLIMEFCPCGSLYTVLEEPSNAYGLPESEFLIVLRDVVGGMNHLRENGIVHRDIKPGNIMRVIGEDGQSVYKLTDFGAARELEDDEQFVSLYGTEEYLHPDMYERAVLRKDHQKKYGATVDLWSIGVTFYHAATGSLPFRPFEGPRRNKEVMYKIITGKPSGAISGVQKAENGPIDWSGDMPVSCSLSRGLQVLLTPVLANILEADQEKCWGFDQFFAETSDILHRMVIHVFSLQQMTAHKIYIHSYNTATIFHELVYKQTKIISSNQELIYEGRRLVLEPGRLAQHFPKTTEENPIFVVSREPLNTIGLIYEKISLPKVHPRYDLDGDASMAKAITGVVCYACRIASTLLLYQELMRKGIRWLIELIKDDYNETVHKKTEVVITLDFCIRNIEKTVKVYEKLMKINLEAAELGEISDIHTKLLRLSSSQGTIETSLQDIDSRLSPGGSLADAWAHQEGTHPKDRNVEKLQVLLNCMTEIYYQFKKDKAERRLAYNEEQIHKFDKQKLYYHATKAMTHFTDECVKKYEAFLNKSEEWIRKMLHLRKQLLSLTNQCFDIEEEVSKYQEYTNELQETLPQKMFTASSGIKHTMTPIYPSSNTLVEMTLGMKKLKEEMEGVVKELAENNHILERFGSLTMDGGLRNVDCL
UniProt Q14164: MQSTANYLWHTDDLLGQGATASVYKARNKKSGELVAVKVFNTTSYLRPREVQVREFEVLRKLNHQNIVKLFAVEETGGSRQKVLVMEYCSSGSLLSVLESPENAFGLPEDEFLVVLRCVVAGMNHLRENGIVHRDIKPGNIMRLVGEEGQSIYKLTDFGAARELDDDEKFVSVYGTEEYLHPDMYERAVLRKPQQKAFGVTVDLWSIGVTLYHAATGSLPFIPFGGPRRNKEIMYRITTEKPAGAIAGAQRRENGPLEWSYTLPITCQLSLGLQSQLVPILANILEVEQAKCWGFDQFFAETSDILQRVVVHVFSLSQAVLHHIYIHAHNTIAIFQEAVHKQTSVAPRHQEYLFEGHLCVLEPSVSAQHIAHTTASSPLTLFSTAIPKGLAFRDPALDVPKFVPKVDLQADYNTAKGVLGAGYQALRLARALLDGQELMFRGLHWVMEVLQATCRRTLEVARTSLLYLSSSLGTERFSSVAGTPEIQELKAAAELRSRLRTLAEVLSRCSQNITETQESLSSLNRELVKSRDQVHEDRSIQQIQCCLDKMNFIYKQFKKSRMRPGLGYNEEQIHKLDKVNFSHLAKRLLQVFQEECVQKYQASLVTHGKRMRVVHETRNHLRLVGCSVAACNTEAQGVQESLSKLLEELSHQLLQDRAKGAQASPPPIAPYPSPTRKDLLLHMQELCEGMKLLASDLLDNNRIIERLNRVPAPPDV

SMILES strings stand for the structures. pIC50: −log10 of the molar value.

The target in experiment [1] is TANK binding kinase (TBK1) (Homo sapiens (Human), UniProt Q9UHD2). In words: TBK1 enzyme assay (384-well flashplate kinase assay). The format is biochemical. The note with it: 0.6 nM TBK1, 10 μM ATP, 30° C., 120 min. The protocol: Test for the Inhibition of TBK1
(§1) The kinase assay is performed as 384-well flashplate assay (for example for Topcount measurement).
0.6 nM TANK binding kinase (TBK1), 800 nM biotinylated MELK-derived peptide (Biotin-Ah-Ah-[…]) and 10 μM ATP (spiked with 0.25 μCi of ^33P-ATP/well) are incubated at 30° C. for 120 min in a total volume of 50 μl (10 mM MOPS, 10 mM Mg acetate, 0.1 mM EGTA, 1 mM DTT, 0.02% of Brij35, 0.1% of BSA, pH 7.5) with or without test compound. The reaction is stopped with 25 μl of 200 mM EDTA. After 30 min at room temperature, the liquid is removed, and each well is washed three times with 100 μl of 0.9% sodium chloride solution. Non-specific reaction is measured in the presence of 100 nM staurosporine. The radioactivity is measured in a Topcount (PerkinElmer). The results (for example IC50 values) are calculated using program tools provided by the IT Department (for example AssayExplorer, Symyx).

The target in another experiment is IKKε (Homo sapiens (Human), UniProt Q14164). In words: IKKε kinase assay (384-well flashplate assay). The format is biochemical. The following applies: 1 nM IKKε, 10 μM ATP, 30° C., 2 hours; read-out: IKKε enzyme assay IC50. The protocol:
Test for the Inhibition of IKKε
IKKε—Kinase Assay (IKKepsilon)
as §1
1 nM IKKε, 800 nM biotinylated IκBα(19-42) peptide (Biotin-C6-C6-[…]) and 10 μM ATP (spiked with 0.3 μCi of ^33P-ATP/well) are incubated at 30° C. for 2 hours in a total volume of 50 μl (10 mM MOPS, 10 mM Mg acetate, 0.1 mM EGTA, 1 mM dithiothreitol, 0.02% of Brij35, 0.1% of BSA, 0.1% of BioStab, pH 7.5) with or without test compound. The reaction is stopped using 25 μl of 200 mM EDTA. After 30 min at room temperature, the liquid is removed, and each well is washed three times with 100 μl of 0.9% sodium chloride solution. Non-specific reaction is determined in the presence of 3 μM MSC2119074 (BX-795). The radioactivity is measured using a Topcount (PerkinElmer). The results (for example IC50 values) are calculated using program tools provided by the IT Department (for example AssayExplorer, Symyx).

On to `N#Cc1cc(-c2ccnc(Nc3cn[nH]c3)n2)ccc1OC1CCOCC1` [Compound A34, 5-[2-(1H-Pyrazol-4-ylamino)pyrimidin-4-yl]-2-(tetrahydropyran-4-yloxy)benzonitrile], for which the pIC50 (in experiment [1]; on IKKε) was 8.22 throughout.
